Measured values: paper PMC6058667, “Modified mixed nanomicelles with collagen peptides enhanced oral absorption of Cucurbitacin B: preparation and evaluation” (Drug Delivery, 2018)

What was measured:
[1] = In vitro CuB release (dialysis bag); format: physicochemical; settings: PBS pH 6.8 with 0.5% SDS, 37 °C, 24 h
Protocol: The in vitro release behavior of CuB from CuB-MMs-CPs micelles was monitored in a phosphate buffered saline (PBS) (PH 6.8) medium containing 0.5% sodium dodecyl sulfate (SDS) to obtain pseudo sink conditions. Briefly, aliquots of CuB-MMs-CPs micelles were introduced into a dialysis bag (MWCO =2000 Da), the sealed end of which was immersed fully into 40 mL of a release medium at 37 °C. This medium was stirred at 100 rpm for 24 h. At fixed time intervals, 1 mL aliquots were withdrawn and replaced with an equal volume of fresh medium. CuB release from the stock solution was conducted under the same conditions as the controls. The concentration of CuB in the samples was determined by HPLC.

Caco-2 cell monolayer = experiment: Transcellular transport across Caco-2 cell monolayer
Protocol: The plates were incubated at 37 °C. […] All experiments were performed in triplicate.

Cucurbitacin B [CuB]
Release behaviour of CuB [1]: initial burst release in 4 h | Effect of temperature on quantity of cellular transportation, AP side to BL side (Caco-2 cell monolayer; 4 °C versus 37 °C): no significant effect | Effect of temperature on quantity of cellular transportation, BL side to AP side (Caco-2 cell monolayer; 4 °C versus 37 °C): significantly reduced | Effect of endocytosis inhibitor chlorpromazine on Caco-2 cell transportation (Caco-2 cell monolayer; with chlorpromazine): no significant effect | Effect of endocytosis inhibitor indomethacin on Caco-2 cell transportation (Caco-2 cell monolayer; with indomethacin): no significant effect | Effect of ATP inhibitor sodium azide on Caco-2 cell transport capacity of CuB (Caco-2 cell monolayer; with sodium azide): increased significantly | Effect of efflux inhibitor verapamil on Caco-2 cell transport capacity of CuB (Caco-2 cell monolayer; with verapamil): increased significantly
